{"sequences": {"note": "By UniProt entry, the sequences of proteins in these tests, tags left out. Where a name states a change or a piece, a line headed by the entry shows the natural chain unless it says otherwise.", "UniProt Q9Y5N1": "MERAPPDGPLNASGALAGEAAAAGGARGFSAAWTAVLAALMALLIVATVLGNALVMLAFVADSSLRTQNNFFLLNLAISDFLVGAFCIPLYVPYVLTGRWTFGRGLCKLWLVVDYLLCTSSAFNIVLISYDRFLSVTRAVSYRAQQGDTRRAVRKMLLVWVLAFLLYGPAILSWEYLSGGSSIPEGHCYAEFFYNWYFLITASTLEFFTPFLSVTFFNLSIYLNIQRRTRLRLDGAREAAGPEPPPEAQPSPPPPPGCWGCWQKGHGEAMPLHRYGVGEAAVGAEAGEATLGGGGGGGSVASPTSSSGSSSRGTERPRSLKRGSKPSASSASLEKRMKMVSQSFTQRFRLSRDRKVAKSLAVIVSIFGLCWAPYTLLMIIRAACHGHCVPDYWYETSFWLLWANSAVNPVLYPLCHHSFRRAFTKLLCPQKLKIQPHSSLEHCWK"}, "source": "ChEMBL document CHEMBL1149657", "about": "“Benzylamine histamine H(3) antagonists and serotonin reuptake inhibitors” (Bioorg Med Chem Lett, 2007)", "biological_target": "Histamine H3 receptor (Homo sapiens, UniProt Q9Y5N1)", "assay": "Binding affinity to human histamine H3 receptor"}
{"molecule": "COc1ccc([C@@H]2CN(C)Cc3cc(OCCCN4CCC(F)CC4)ccc32)cc1", "values": [{"measurement": "Ki", "value": 4, "unit": "nM"}]}
